Data taken from PMC3794980, “Identification of Conserved and HLA Promiscuous DENV3 T-Cell Epitopes” (PLoS Neglected Tropical Diseases, 2013).

Sequences of proteins named here, by UniProt entry; tags and fusion partners are left off. Residues count along the entry.
UniProt P79483, 30-266: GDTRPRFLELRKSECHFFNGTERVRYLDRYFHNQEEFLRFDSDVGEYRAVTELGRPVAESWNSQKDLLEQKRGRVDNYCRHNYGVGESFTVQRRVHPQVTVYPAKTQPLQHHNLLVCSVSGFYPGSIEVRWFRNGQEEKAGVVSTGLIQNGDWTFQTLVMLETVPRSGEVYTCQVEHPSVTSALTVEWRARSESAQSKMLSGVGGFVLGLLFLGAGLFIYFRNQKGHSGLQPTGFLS
UniProt Q30154, 30-266: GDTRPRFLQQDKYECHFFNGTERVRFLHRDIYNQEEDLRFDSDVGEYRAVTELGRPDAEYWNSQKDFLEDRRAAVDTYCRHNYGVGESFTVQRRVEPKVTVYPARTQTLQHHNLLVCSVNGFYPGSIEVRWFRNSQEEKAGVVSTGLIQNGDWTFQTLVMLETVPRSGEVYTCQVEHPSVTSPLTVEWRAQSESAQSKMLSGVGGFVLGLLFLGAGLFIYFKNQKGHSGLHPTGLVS

How the values were obtained:
[1] = molecular target: DRB1*1501 (Homo sapiens, UniProt P01903+P01911); assay: biochemical; type: binding
[2] = molecular target: DRB1*0101 (Homo sapiens, UniProt P01903+P01911, A100R/D57E/F55L/F60I/F76Y/I96L/L162R/M171V/P40L/Q125E/R42F/V115G/Y59C); assay: biochemical; type: binding
[3] = molecular target: DRB1*0401 (Homo sapiens, UniProt P01903+P01911, A100K/A169T/F76Y/I96L/K127E/L162R/M171V/N62H/P40V/Q125Y/R42H/S133A/S149N/S66Y/V115G/V209L/W38E); assay: biochemical; type: binding
[4] = molecular target: DRB1*0405 (Homo sapiens, UniProt P01903+P01911, A100R/A169T/D86S/F76Y/I96L/K127E/L162R/M171V/N62H/P40V/Q125Y/R42H/S133A/S149N/S66Y/V115G/V209L/W38E); assay: biochemical; type: binding
[5] = molecular target: DRB3*0101 (Homo sapiens, UniProt P01903+P79483); assay: biochemical; type: binding
[6] = molecular target: DRB1*0901 (Homo sapiens, UniProt P01903+P01911, A100R/A103E/D57H/D86V/F55Y/F60I/F76Y/I96F/K127E/L162R/M171V/P40D/Q125H/Q99R/R33Q/R42F/S133A/S66N/T210M/V115G/W38K/Y107V/Y59G/Y89S); assay: biochemical; type: binding
[7] = molecular target: DRB1*1302 (Homo sapiens, UniProt P01903+P01911, A100E/A169T/K41T/L162R/M171V/P40S/Q125H/Q178H/Q39Y/Q99D/R42S/S66N/T262R/V115G/W38E/Y61H); assay: biochemical; type: binding; details: competitive inhibition of radiolabeled standard peptide, read-out: Binding Affinity (nM) DRB1*1302
[8] = molecular target: DRB1*0404 (Homo sapiens, UniProt P01903+P01911, A100R/A169T/F76Y/I96L/K127E/L162R/M171V/N62H/P40V/Q125Y/R42H/S133A/S149N/S66Y/V209L/W38E); assay: biochemical; type: binding
[9] = molecular target: DRB5*0101 (Homo sapiens, UniProt P01903+Q30154); assay: biochemical; type: binding
[10] = molecular target: DRB1*1101 (Homo sapiens, UniProt P01903+P01911, A100R/A169T/A87E/I96F/K41T/L162R/M171V/P40S/Q125H/Q178H/Q39Y/Q99D/R42S/S66Y/T262R/V115G/W38E); assay: biochemical; type: binding
[11] = molecular target: DRB1*0301 (Homo sapiens, UniProt P01903+P01911, A100K/A102G/A103R/A169T/F55Y/I96L/K41T/L162R/M171V/P40S/Q125H/Q178H/Q39Y/R42S/S66N/T106N/T262R/W38E/Y61H); assay: biochemical; type: binding
[12] = molecular target: DRB1*0701 (Homo sapiens, UniProt P01903+P01911, A100R/A102G/A103Q/D57E/D86V/E43K/F76Y/K127E/L162R/M171V/P40G/Q125H/Q99D/R33Q/R42Y/R54Q/S133A/S66F/T210M/V115G/Y107V/Y59L/Y89S); assay: biochemical; type: binding
[13] = molecular target: DRB1*0802 (Homo sapiens, UniProt P01903+P01911, A100R/A103L/A169T/F76Y/H45Y/I96F/K41T/L162R/M171V/P40S/Q125H/Q178H/Q39Y/Q99D/R218S/R42G/S66Y/V115G/W38E); assay: biochemical; type: binding
[14] = tested on: HLA-DR3 (DRA1*0101; -DRB1*0301) transgenic mice; details: for Transgenic mice DR3: IFN-γ ELISPOT of splenocytes, HLA-DR3 transgenic mice, printed as value+spread, '-' = no value, distinct from ND; for Transgenic mice DR3 (ELISPOT): representative IFN-γ ELISPOT data, CD8-depleted splenocytes of HLA-DR3 TgM
[15] = molecular target: DRB4*0101 (Homo sapiens, UniProt P01903+P13762, G164S); assay: biochemical; type: binding
[16] = tested on: HLA-DR2 (DRA1*0101/I-Eα; DRB1*1501/I-Eβ) transgenic mice; details: for Transgenic mice DR2 (ELISPOT): representative IFN-γ ELISPOT data, CD8-depleted splenocytes of HLA-DR2 TgM
[17] = tested on: HLA-B07 (B*0702) transgenic mice; assay: IFN-γ ELISPOT of splenocytes from peptide-pool-immunized HLA-B07 transgenic mice; type: in vivo; details: for SFC±SD: IFN-γ ELISPOT, CD4-depleted splenocytes of HLA-B07 TgM immunized s.c. twice with peptide pool in Titermax gold, duplicate wells; for Functional avidity: minimum peptide concentration (10, 1, 0.1 µg/mL tested) that activated memory T-cells, HLA-B07 TgM
[18] = tested on: 14 different HLA molecules (HLA class II); assay: HLA class II binding assays, promiscuity over 14 HLA molecules (summary); details: HLA molecules among the 14 analyzed to which the peptide binds; binding affinity characterized by IC50 below 1000 nM
[19] = tested on: HLA transgenic mice (A02, A24, B07, DR2, DR3 and DR4); assay: Immunogenicity screen in six HLA transgenic mice strains (summary); type: in vivo; details: IFN-γ ELISPOT in six TgM strains; Negative = none
[20] = tested on: HLA of the TgM (A02, A24, B07, DR2, DR3, DR4); assay: HLA binding assays, summary of HLA affinity confirmed; design: species or system human; details: ND: non-determined
[21] = tested on: HLA-DR4 (HLA-DRA1*0101; -DRB1*0401) transgenic mice; details: representative IFN-γ ELISPOT data, CD8-depleted splenocytes of HLA-DR4 TgM
[22] = read-out: Binding Affinity (nM) DRB3*0101
[23] = read-out: Binding Affinity (nM) DRB5*0101

CC[C@H](C)[C@H](NC(=O)[C@H](C)NC(=O)[C@H](CCC(=O)O)NC(=O)[C@@H](NC(=O)[C@@H](NC(=O)[C@H](CO)NC(=O)[C@H](C)NC(=O)[C@H](CCC(N)=O)NC(=O)[C@@H]1CCCN1C(=O)[C@@H](NC(=O)[C@@H](NC(=O)[C@@H](N)CCC(=O)O)[C@@H](C)CC)[C@@H](C)O)[C@@H](C)O)[C@@H](C)O)C(=O)N[C@@H](CC(C)C)C(=O)N1CCC[C@H]1C(=O)N[C@@H](CCC(=O)O)C(=O)O [Envelope 161-175]
IC50 ([1]; read-out: Binding Affinity (nM) DRB1*1501): > 20000 nM
IC50 [2]: 3440 nM
IC50 [3]: 115 nM
IC50 [4]: 691 nM
IC50 [5, 22]: > 20000 nM
IC50 ([6]; competitive inhibition of radiolabeled standard peptide, '-' distinct from ND, read-out: Binding Affinity (nM) DRB1*0901): 4260 nM
IC50 ([7]; '-' distinct from ND): 68 nM
IC50 [8]: 1250 nM
IC50 [9, 23]: > 20000 nM
IC50 ([10]; read-out: Binding Affinity (nM) DRB1*1101): > 20000 nM
IC50 [11]: 2840 nM
IC50 [12]: 509 nM
IC50 [13]: 63 nM

CSCC[C@H](NC(=O)[C@H](CC(C)C)NC(=O)[C@H](CCCNC(=N)N)NC(=O)[C@@H](N)Cc1c[nH]cn1)C(=O)N[C@@H](CO)C(=O)N[C@@H](C)C(=O)N[C@@H](C)C(=O)N[C@H](C(=O)N[C@@H](CCCCN)C(=O)N[C@@H](CC(=O)O)C(=O)N[C@@H](CCC(=O)O)C(=O)N[C@@H](CCCNC(=N)N)C(=O)N[C@@H](C)C(=O)N[C@H](C(=O)N[C@@H](Cc1c[nH]cn1)C(=O)O)C(C)C)C(C)C [NS1 181-195]
Transgenic mice DR3 [14]: 119+14

CC[C@H](C)[C@H](NC(=O)[C@H](CC(C)C)NC(=O)[C@H](CC(=O)O)NC(=O)[C@H](CCCCN)NC(=O)[C@H](CCCCN)NC(=O)[C@@H](NC(=O)[C@H](CO)NC(=O)[C@H](C)NC(=O)[C@@H](N)Cc1c[nH]c2ccccc12)C(C)C)C(=O)N[C@@H](CO)C(=O)N[C@@H](Cc1ccc(O)cc1)C(=O)NCC(=O)NCC(=O)NCC(=O)N[C@@H](Cc1c[nH]c2ccccc12)C(=O)O [NS3 69-83]
IC50 [1]: 30 nM
IC50 [2]: 3080 nM
IC50 [4]: 9790 nM
IC50 [5]: 1430 nM
IC50 [6]: 5050 nM
IC50 [9]: 2210 nM
IC50 [11]: 4490 nM
IC50 [12]: 2380 nM
IC50 [15]: 2050 nM
IC50 [13]: 2070 nM

CC[C@H](C)[C@H](NC(=O)[C@H](CCCCN)NC(=O)[C@H](CCCCN)NC(=O)[C@H](CCC(=O)O)NC(=O)[C@H](CC(C)C)NC(=O)[C@@H]1CCCN1C(=O)[C@H](Cc1c[nH]cn1)NC(=O)[C@@H]1CCCN1)C(=O)N[C@H](C(=O)N[C@@H](CCC(N)=O)C(=O)N[C@@H](Cc1c[nH]c2ccccc12)C(=O)N[C@@H](CC(C)C)C(=O)N[C@@H](CCC(=O)O)C(=O)N[C@H](C(=O)N[C@@H](CCCCN)C(=O)NCC(=O)N[C@H](C(=O)O)C(C)C)[C@@H](C)O)[C@@H](C)O [NS5 636-652]
IC50 [1]: 453 nM
IC50 [2]: 1440 nM
IC50 ([3]; read-out: Binding Affinity (nM) DRB1*0401): > 20000 nM
IC50 [4]: 11300 nM
IC50 [5, 22]: > 20000 nM
IC50 ([6]; competitive inhibition of radiolabeled standard peptide, DRB1*0901, read-out: Binding Affinity (nM) DRB1*0901): 9880 nM
IC50 ([7]; DRB1*1302): > 20000 nM
IC50 [8]: 17000 nM
IC50 [9, 23]: > 20000 nM
IC50 [10]: 1070 nM
IC50 [11]: 8480 nM
IC50 [12]: 352 nM
IC50 [13]: 4750 nM

ANAIFKLTYQNKVVKVQ [NS5_564–580]
Transgenic mice DR2 (ELISPOT) [16]: 849+8 SFC per 1 million cells

ASIAARGYISTRVGM [NS3_293–307]
Transgenic mice DR2 (ELISPOT) [16]: 27+4 SFC per 1 million cells

DENPYKTWAYHGSYEVK [NS5_295–311]
Transgenic mice DR2 (ELISPOT) [16]: 126+10 SFC per 1 million cells

GATTETPTWNRKELL [Env221–235, DENV3 Envelope 15-mer overlapping library peptide]
SFC±SD [17]: 192±2 SFC per 1 million cells
Functional avidity [17]: 10 µg/mL

HTQTAGPWHLGKLEL [NS1_261–275]
Transgenic mice DR3 (ELISPOT) [14]: 337+0 SFC per 1 million cells
HLA class II binders [18]: DRB1*0301, DRB4*0101

IFMTATPPGTADAFP [NS3_313–327]
HLA class II binders [18]: DRB1*0101, DRB1*0401, DRB1*0701, DRB1*0802, DRB4*0101

KKRNLTIMDLHPGSG [NS3_185–199]
HLA class II binders [18]: DRB1*0101, DR, B1*0301, DRB1*0401, DRB1*0405, DRB1*0802, DRB1*1101, DRB4*0101, DRB5*0101
TGM (HLA transgenic mice in which the peptide was immunogenic) [19]: DR4
Binding assay (HLA to which affinity was found) [20]: DR4
Transgenic mice DR4 (ELISPOT) [21]: 39+13 SFC per 1 million cells

KKVIQLSRKTFDTEY [NS3_381–395]
Transgenic mice DR3 (ELISPOT) [14]: 23+1 SFC per 1 million cells

LNSKNTSMSFSCIAI [Envelope 466-480]
Transgenic mice DR3 [14]: 31+2
Transgenic mice DR2 ([16]; IFN-γ ELISPOT of splenocytes, HLA-DR2 transgenic mice, printed as value+spread, '-' = no value, distinct from ND): 33+6

MYFHRRDLRLASNAI [NS5_765–779]
Transgenic mice DR2 (ELISPOT) [16]: 75+16 SFC per 1 million cells
Transgenic mice DR4 (ELISPOT) [21]: 531+10 SFC per 1 million cells

RTLGRNKRPRLCTREEF [NS5_382–398, DENV3 NS5 17-mer overlapping library peptide]
SFC±SD [17]: 501±19 SFC per 1 million cells
Functional avidity [17]: 0.1 µg/mL

TDISEMGANFKADRV [NS3_409–423]
Transgenic mice DR3 (ELISPOT) [14]: 114+17 SFC per 1 million cells
HLA class II binders [18]: DRB1*0301, DRB3*0101, DRB5*0101

TPTWNRKELLVTFKN [Env226–240, DENV3 Envelope 15-mer overlapping library peptide]
SFC±SD [17]: 456±7 SFC per 1 million cells
Functional avidity [17]: 0.1 µg/mL

TWAYHGSYEVKATGSA [NS5_301–316]
Transgenic mice DR2 (ELISPOT) [16]: 161+20 SFC per 1 million cells
Transgenic mice DR4 (ELISPOT) [21]: 19+0 SFC per 1 million cells

VERLKRMAISGDDCVVK [NS5_652–668]
Transgenic mice DR3 (ELISPOT) [14]: 255+22 SFC per 1 million cells

VMDIISRKDQRGSGQVG [NS5_588–604]
HLA class II binders [18]: DRB1*0301, DRB1*1101

WPKSHTLWSNGVLES [NS1_225–239]
Transgenic mice DR3 (ELISPOT) [14]: 129+3 SFC per 1 million cells

Read-outs that look alike come from different tables or passages of the source.
